System: NCI-N87 cells (HER2 overexpressing human gastric cancer cells)
Test: Tumor inhibition rate test of NCI-N87 transplanted tumor in nude mice
Assay type: in vivo
Conditions: 7.5 mg/kg (first dose doubling), IV, D0, 7
Description: To evaluate and compare the effect of antibody-cytotoxin conjugates according to the present invention on transplanted tumors of NCI-N87 cells (HER2 overexpressing human gastric cancer cells, ATCC, CRL-5822) in nude mice. […] Preparation method: all prepared with physiological saline. […] Feeding environment: SPF level. […] T/C (%)=(T−T0)/(C−C0)×100%, wherein T and C represent the tumor volume at the end of the experiment; T0 and C0 represent the tumor volume at the beginning of the experiment. […] The number of mice at the beginning of the experiment was as follows: Control group n=12, Treatment group n=6.

For Trastuzumab, the “% tumor inhibition rate D21” value was 60% and the “Mean tumor volume (mm^3) D21” value was 366.5 mm^3.

Reference: patent US20180177890A1, “LIGAND-CYTOTOXIC DRUG CONJUGATE, PREPARATION METHOD THEREOF, AND USE THEREOF” (priority 2015, published 2018)
